# Curated experimental data: logP (octanol/water) values

From the experimental data distributed with OPERA 2.9.

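The numbers are reported measurements, compiled and curated for the OPERA QSAR suite. A listed value is a point estimate from one report or more. Method and conditions are not stated for these values. The measured form (salt, isomer or mixture) is not always the one drawn. Some upstream entries may be estimates or bounds without being marked so.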

The octanol-water partition coefficient is given as log10; larger values mean a more lipophilic compound.
"–" marks a cell with nothing listed here.
"via" names the databases from which the curators took the value.

SMILES	name	logP (octanol/water)	via
CC1(C)CC(NCCCCCCNC2CC(C)(C)NC(C)(C)C2)CC(C)(C)N1	–	0.6	eChemPortal
CCCCCCCCCCCCCCCCOC(=O)C(CC)CCCC (stereo unspecified)	Hexanoic acid, 2-ethyl-, hexadecyl ester	6.15	eChemPortal
CCCCCCCCCCCCCCCCCCCCO	1-Eicosanol	8.025	eChemPortal
CNC=O	N-Methylformamide	-0.97	OCHEM, PubChem, eChemPortal
O=C([O-])CN(CCCN(C(=O)[O-])C(=O)[O-])C(=O)[O-].[Fe+3].[NH4+]	Ammonium 1,3-propylenediaminetetraacetatoferrate	-2.5	eChemPortal
N#CC(=C1CCCCC1)c1ccccc1	2-cyclohexylidene-2-phenylacetonitrile	4	eChemPortal
F[P-](F)(F)(F)(F)F.F[P-](F)(F)(F)(F)F.c1ccc([S+](c2ccccc2)c2ccc(Sc3ccc([S+](c4ccccc4)c4ccccc4)cc3)cc2)cc1	–	1	eChemPortal
O=P(O)(O)C(O)(Cn1ccnc1)P(=O)(O)O	Zoledronate	-4.2	PubChem
Fc1cccc(C(F)(F)F)n1	2-Fluoro-6-(trifluoromethyl)pyridine	1.83	eChemPortal
Cc1ncc(C[n+]2csc(CCO)c2C)c(N)n1.[Cl-]	Thiamine	-3.93	OCHEM
C=COCC(CC)CCCC (stereo unspecified)	1-Ethenoxy-2-ethylhexane	5.04	OCHEM
Cc1cc(S(=O)(=O)[O-])ccc1/N=N/c1c(O)ccc(/N=N/c2ccccc2C(=O)[O-])c1[O-].Cc1cc(S(=O)(=O)[O-])ccc1/N=N/c1c(O)ccc(/N=N/c2ccccc2C(=O)[O-])c1[O-].[Cr+3].[Na+].[Na+].[Na+]	C.I. Acid Brown 425	-3.4	eChemPortal
CC(O)C1CCCCC1 (stereo unspecified)	1-Cyclohexylethanol	1.6	eChemPortal
CCCCCCCCCCCCc1ccc(S(=O)(=O)[O-])cc1.CCCCCCCCCCCCc1ccc(S(=O)(=O)[O-])cc1.CCCCCCCCCCCCc1ccc(S(=O)(=O)[O-])cc1.CCCCCCCCCCCCc1ccc(S(=O)(=O)[O-])cc1.[Ce+4]	Benzenesulfonic acid, 4-dodecyl-, cerium(4+) salt, basic	2.2	eChemPortal
C1COC2CC2C1 (stereo unspecified)	2-Oxabicyclo[4.1.0]heptanato	1.26	OCHEM
C=CC(=O)OCCCCCCOC(=O)C=C	1,6-Hexanediol diacrylate	2.81	eChemPortal
CCC=C(C)C(O)CCCCC (stereo unspecified)	4-Methyl-3-decen-5-ol	3.9	eChemPortal
C=CNC=O	Formamide, N-ethenyl-	-0.11	eChemPortal
NNCCc1ccccc1	Phenelzine	1.1	PubChem
CC1=NN(c2cccc(S(=O)(=O)O)c2)C(=O)C1	–	-2.05	eChemPortal
CNc1ccccc1C(=O)OC	Methyl N-methylanthranilate	2.947	eChemPortal
O=C(CS)OCC(COC(=O)CS)(COC(=O)CS)COC(=O)CS	–	1.92	eChemPortal
Nc1nc(=O)c2ncn(CCC(CO)CO)c2[nH]1	Penciclovir	-1.1	PubChem
CCn1c(O)c(/N=N/c2cc(Nc3nc(Cl)nc(Nc4ccc(-c5nc6ccc(C)c(S(=O)(=O)[O-])c6s5)cc4)n3)ccc2S(=O)(=O)[O-])c(C)c(C(N)=O)c1=O.[Na+].[Na+]	–	-2.63	eChemPortal
CC(C)(C)C(=O)OCn1cc2c(=O)n(COC(=O)C(C)(C)C)cnc2n1	–	2.34	OCHEM
C=Cn1ccnc1	1H-Imidazole, 1-ethenyl-	0.75	eChemPortal
COCCCOc1cc(C(O)[C@@H](C[C@H](NC(=O)OC(C)(C)C)[C@@H]2C[C@@H](C(C)C)C(=O)O2)C(C)C)ccc1OC (stereo not given in full)	–	2.49	eChemPortal
C[N+](C)(Cc1ccccc1)Cc1ccccc1.[Cl-]	–	-1.83	eChemPortal
O=c1occo1	1,3-Dioxol-2-one	0.437	eChemPortal
COc1ccccc1N1CCN(CCCOc2ccc(F)cc2)CC1	1-[3-(4-Fluorophenoxy)propyl]-4-(2-methoxyphenyl)-piperazine	4.1	OCHEM
COc1ccc(/N=N/c2c(S(=O)(=O)[O-])cc3cc(Nc4nc(F)nc(F)c4Cl)ccc3c2O)c(S(=O)(=O)[O-])c1.[Na+].[Na+]	–	-2.1	eChemPortal
O[C@H]1O[C@H](COCc2ccccc2)[C@@H](OCc2ccccc2)[C@H](OCc2ccccc2)[C@H]1OCc1ccccc1	–	5.9	eChemPortal
Cc1cc(C)c(Cl)c(O)c1	Phenol, 2-chloro-3,5-dimethyl-	2.8	eChemPortal
CC1(C)O[C@@H]2C[C@H]3[C@@H]4CCC5=CC(=O)C=C[C@]5(C)[C@H]4[C@@H](O)C[C@]3(C)[C@]2(C(=O)CO)O1	Desonide	1.4	PubChem
c1ccc2c(NCCCN3CCOCC3)cccc2c1	4-Morpholinepropanamine, N-1-naphthalenyl-	2.765	eChemPortal
CCN(c1ccccc1)S(=O)(=O)c1ccccc1/N=N/C1C(=O)N(c2cc(Cl)c(S(=O)(=O)[O-])cc2Cl)N=C1C.[Na+] (stereo partly drawn)	C.I. Acid Yellow 61	0.038	eChemPortal
C=CCOCC(O)CS(=O)(=O)[O-].[Na+] (stereo unspecified)	Sodium 3-(allyloxy)-2-hydroxypropanesulphonate	-1.51	eChemPortal
C=S(=C)(C)O[C@@H]1CC(C(=O)OCC)=C[C@H]2OC(C)(C)O[C@H]21	–	2.2	eChemPortal
Clc1ccc(COC(Cn2ccnc2)c2ccc(Cl)cc2Cl)cc1 (stereo unspecified)	Econazole	5.5	PubChem
CN(C)c1ccc(C(=C2C=CC(=[N+](C)C)C=C2)c2c(O)c(S(=O)(=O)[O-])cc3cc(S(=O)(=O)[O-])ccc23)cc1.[Na+]	Acid green 50	0.595	eChemPortal
NC(=O)c1nc(-c2ccccc2)n(-c2ccc(Cl)c(COCC(F)(F)C(F)(F)F)c2)n1	Flupoxam	3.27	OCHEM
Cc1ccc(NCCO)c([N+](=O)[O-])c1	Hydroxyethyl-2-nitro-p-toluidine	2.1	eChemPortal
Cl.NNc1ccc(S(N)(=O)=O)cc1	4-Hydrazinylbenzene-1-sulfonamide--hydrogen chloride (1/1)	-0.99	eChemPortal
CC(C)c1ccc(-c2ccccc2)cc1	4-Isopropylbiphenyl	5.51	OCHEM
O=S(=O)([O-])CS(=O)(=O)[O-].[K+].[K+]	Methanedisulfonic acid potassium salt (1:2)	-1.83	eChemPortal
CCCCN1C[C@H](O)[C@@H](O)[C@H](O)[C@H]1CO	Miglustat	-0.6	PubChem
NCCN1CCNC1=O	1-(2-Aminoethyl)imidazolidin-2-one	0.017	eChemPortal
[N-]=[N+]=C1C=Cc2c(cccc2S(=O)(=O)[O-])C1=O.[Na+]	–	-3.5	eChemPortal
CC(=O)CCc1ccccc1	Benzylacetone	2	eChemPortal
C=CC(=O)OCCCCCCCCCCCCCCCCCC	Stearyl acrylate	6.8	eChemPortal
Cn1c(-c2ccccc2)c(/N=N/c2scc[n+]2C)c2ccccc21.[Cl-]	C.I. Basic Red 29	-1	eChemPortal
CC(C)(C)OC(=O)N1CC[C@@H](N2CC/C(=C\C3=C(C(=O)OC(c4ccccc4)c4ccccc4)N4C(=O)[C@@H](NC(=O)/C(=N\OC(c5ccccc5)(c5ccccc5)c5ccccc5)c5nsc(N)n5)[C@H]4SC3)C2=O)C1	–	5.66	eChemPortal

The last 8 entries again:

| SMILES | name | logP (octanol/water) | via |
|---|---|---|---|
| O=S(=O)([O-])CS(=O)(=O)[O-].[K+].[K+] | Methanedisulfonic acid potassium salt (1:2) | -1.83 | eChemPortal |
| CCCCN1C[C@H](O)[C@@H](O)[C@H](O)[C@H]1CO | Miglustat | -0.6 | PubChem |
| NCCN1CCNC1=O | 1-(2-Aminoethyl)imidazolidin-2-one | 0.017 | eChemPortal |
| [N-]=[N+]=C1C=Cc2c(cccc2S(=O)(=O)[O-])C1=O.[Na+] | – | -3.5 | eChemPortal |
| CC(=O)CCc1ccccc1 | Benzylacetone | 2 | eChemPortal |
| C=CC(=O)OCCCCCCCCCCCCCCCCCC | Stearyl acrylate | 6.8 | eChemPortal |
| Cn1c(-c2ccccc2)c(/N=N/c2scc[n+]2C)c2ccccc21.[Cl-] | C.I. Basic Red 29 | -1 | eChemPortal |
| CC(C)(C)OC(=O)N1CC[C@@H](N2CC/C(=C\C3=C(C(=O)OC(c4ccccc4)c4ccccc4)N4C(=O)[C@@H](NC(=O)/C(=N\OC(c5ccccc5)(c5ccccc5)c5ccccc5)c5nsc(N)n5)[C@H]4SC3)C2=O)C1 | – | 5.66 | eChemPortal |